Molecular target: Recombinant human glucose-regulated protein GRP78 (human) (UniProt P11021)
Experiment: SPR (Biacore T200), recombinant human GRP78 coupled to a CM5 chip, peptide injected at 0.3125-20 µM

Amino acid sequences for entries named in this document (tags omitted). Residues count along the entry.
UniProt P11021, 19-654 limits assumed: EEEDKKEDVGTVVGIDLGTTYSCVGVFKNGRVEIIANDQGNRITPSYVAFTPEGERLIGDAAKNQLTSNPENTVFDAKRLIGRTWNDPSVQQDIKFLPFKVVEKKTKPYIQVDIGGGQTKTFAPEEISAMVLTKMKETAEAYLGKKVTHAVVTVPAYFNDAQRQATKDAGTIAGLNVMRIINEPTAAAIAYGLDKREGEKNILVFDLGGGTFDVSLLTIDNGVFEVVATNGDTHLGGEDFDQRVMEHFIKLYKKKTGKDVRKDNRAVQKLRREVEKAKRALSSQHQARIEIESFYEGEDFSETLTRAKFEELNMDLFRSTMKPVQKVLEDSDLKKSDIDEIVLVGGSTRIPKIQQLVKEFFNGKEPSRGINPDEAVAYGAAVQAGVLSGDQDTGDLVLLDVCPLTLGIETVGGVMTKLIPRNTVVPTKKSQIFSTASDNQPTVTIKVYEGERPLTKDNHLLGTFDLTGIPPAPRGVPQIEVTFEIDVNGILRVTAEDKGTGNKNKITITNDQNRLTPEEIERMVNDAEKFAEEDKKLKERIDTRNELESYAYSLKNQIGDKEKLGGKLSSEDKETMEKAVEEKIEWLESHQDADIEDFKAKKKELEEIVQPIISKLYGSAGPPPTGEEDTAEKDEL

- Kd: 4.01 µM
Binder: PAVRTNS (all seven residues are D-configuration amino acids (^DP^DA^DV^DR^DT^DN^DS)) [DVAP (D-configuration peptide DP-DA-DV-DR-DT-DN-DS)]
